Screening data deposited in PubChem by National Center for Advancing Translational Sciences (NCATS).
miR-21 reporter: miR-21 reporter, rising signal | HeLa miR-21 FLuc reporter, luciferase, 48 h | Potency, µM (top dose mostly 38.3 µM), inactives show at the top dose reporter change, positive = more light | 340,000 tested, under 10 active | AID 2288; active = well fitted rising curve with a large enough effect; inconclusive = small, poorly fitted or top-dose-only effect; inactive = no such curve, though single readings can be large or run the other way;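 further: % of control where 0% means no effect; miR-21 action dims this reporter so a rising signal means less miR-21 action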
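HeLa miR-21-FLuc reporter line, endogenous miR-21; 2000 cells/well in DMEM/10% FBS; compound titration up to ~40uM final, 48 h, 37 degree Celsius; luciferase detection reagent, 15 min lysis, CCD luminescence.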
Lamin A splicing: changes lamin A minigene splicing in HeLa cells | HeLa LMNA splicing GFP/RFP minigene ratio, 48 h | Potency, µM (series often up to 46.1 µM), for inactives: at the top dose ratio change, negative = inhibition, usual class: inhibitors | AID 1487 | 200,000 tested, 0.01% active; active = well fitted inhibition curve with a large enough effect in the signal ratio, with a control signal flat, not every such curve was filed as active; inconclusive = small, poorly fitted or top-dose-only effect, or effect the other way, or a change in a side signal; the % refers to the signal ratio; also: potency is read from the fitted curve at half-maximal effect; % is scaled to controls: 0 for no effect and ±100 for the full control effect
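Read-out is the ratio of GFP to DsRed2 object intensity, acquired by 488 nm laser-scanning cytometry on HeLa lamin A-EGFP minigene reporter cells. Compound incubation 48 hrs at 37 °C in Opti-MEM with 2% FBS; DMSO 0.5% final.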
JMJD2E inh: JMJD2E (human) inhibition. JMJD2E catalytic domain, FDH-coupled NADH fluorescence (FDH is formaldehyde dehydrogenase). 230,000 tested, 1.6% active. Potency, µM (titrated, usually from 57.1 µM), for inactives: at the top dose activity change, negative = inhibition, most hits filed as inhibitors; active = well fitted inhibition curve with a large enough effect, not every such curve was filed as active; inconclusive = small, poorly fitted or top-dose-only effect, or another doubt; inactive = no such curve, though single readings can be large or run the other way;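 also: potency is read from the fitted curve at half-maximal effect; 0% = wells with enzyme and -100% = buffer wells without enzyme; nearly all actives have a fitted effect of over 50% in size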
G9a block: G9a (human) methyltransferase inhibition; 350,000 tested, 8.8% active; Potency, µM (top dose mostly 102 µM), for the others: at the highest dose activity, negative = inhibition, actives largely listed as inhibitors; G9a H3K9 monomethylation, AlphaScreen, 2 h; Q96KQ7; AID 504332; also: potency is read from the fitted curve at half-maximal effect; % is scaled to controls: 0 for no effect and ±100 for the full control effect; nearly all actives have a fitted effect of over 75% in size
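Quantitative HTS format: methyltransferase activity on a biotin-tagged H3K9 peptide is measured by AlphaScreen, using a rabbit anti-monomethyl-H3K9 antibody with streptavidin donor and anti-IgG acceptor beads. Final levels are 20 nM enzyme, 500 nM peptide, 20 uM SAM; 2 h RT.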
Sfp inh: qHTS Assay for Inhibitors of Bacillus subtilis Sfp phosphopantetheinyl transferase (PPTase); 4'-phosphopantetheinyl transferase ffp (Bacillus subtilis), Q9F4F7; Biochemical Sfp PPTase activity, qHTS; Potency, µM, for inactives: max response, negative = inhibition, most hits filed as inhibitors; hit rate 3.5% among 310,000; AID 1490, 2009; active = well fitted inhibition curve with a large enough effect; inconclusive = small, poorly fitted or top-dose-only effect, or another doubt; inactive = no such curve, though single readings can be large or run the other way;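 also: the enzyme is Sfp with the accession as filed and its product quenches rhodamine fluorescence; potency is read from the fitted curve at half-maximal effect; 0% = enzyme reaction without inhibitor and -100% = no enzyme wells; top concentration of the series not given in the record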
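Buffer: 50 mM Hepes-Na pH 7.6, 10 mM MgCl2, 0.01% Nonidet P-40, 0.01% BSA. Enzyme 15 nM, pre-exposed to compound 15 min; substrates then added and fluorescence change tracked over 30 min.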
ALDH1A1 block: ALDH1A1 (human) enzyme inhibition; P00352; Purified ALDH1A1, NADH fluorescence, propionaldehyde substrate; Potency, µM (highest dose often 75.3 µM), inactives show at the highest dose activity, negative = inhibition, most hits filed as inhibitors; 220,000 tested, 7.3% active; AID 1030; active = well fitted inhibition curve with a large enough effect, not every such curve was filed as active; inconclusive = small, poorly fitted or top-dose-only effect, or another doubt; inactive = no such curve, though single readings can be large or run the other way;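 also: potency is read from the fitted curve at half-maximal effect; plate controls were no enzyme wells and a reference inhibitor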
* marks the source's active call; other numbers are inactive results; ? = inconclusive; · = no result; ! = not confirmed by another sample; [ ] = another dose, or the depositor's remark. A selection: hits, their analogues and other compounds. The true share with any hit is near 13%. Unless noted, calls follow the shape of the dose curve; as a rule, active = well fitted curve in the direction sought with a large enough effect; inconclusive = small, poorly fitted or top-dose-only effect, or another doubt; inactive = no such curve, though single readings can be large; an effect the other way counts as inactive or inconclusive.

#1 COc1ccc(NC(=O)CCCn2c(=O)c3sccc3n(Cc3ccccc3C)c2=O)cc1
#2 COc1ccc(N2C=C3C(=O)C(C)(OC(=O)CCc4ccccc4)C(=O)C=C3C=C2c2ccc(C#N)cc2)cc1 (stereo not drawn)
#3 CC1(OC(=O)CCc2ccccc2)C(=O)C=C2C=C(c3ccc(C#N)cc3)N(CCc3c[nH]c4ccccc34)C=C2C1=O (stereo not drawn)
#4 CC1(OC(=O)CCc2ccccc2)C(=O)C=C2C=C(c3ccc(C#N)cc3)N(C3CCCCC3)C=C2C1=O (stereo not drawn)
#5 COc1ccc(CN2C=C3C(=O)C(C)(OC(=O)CCc4ccccc4)C(=O)C=C3C=C2c2ccc(C#N)cc2)cc1 (stereo not drawn)
#6 CCN(CC)CCCN1C=C2C(=O)C(C)(OC(=O)CCc3ccccc3)C(=O)C=C2C=C1c1ccc(C#N)cc1 (stereo not drawn)
Screen / compound no.	1	2	3	4	5	6
miR-21 reporter	-10%	2%	5%	10%	-5%	5%
Lamin A splicing	-8%	5%[9.22 µM]	13%[9.22 µM]	0%[9.22 µM]	15%[9.22 µM]	-11%[9.22 µM]
JMJD2E inh	-9%	20µM*!	16µM*!	28µM*!	?	?
G9a block	23%[59 µM]	-25%[59 µM]	-48%[59 µM]	-36%[59 µM]	-34%[59 µM]	-29%[59 µM]
Sfp inh	-21%	-1%	14%	12%	8%	4%
ALDH1A1 block	4µM*	3%[13.5 µM]	13%[13.5 µM]	4%[13.5 µM]	3.5µM*	-2%[13.5 µM]

#7 CCN(CC)S(=O)(=O)c1cc(C(=O)Nc2cc(C)[nH]n2)ccc1Cl
#8 COC(=O)c1scc(-c2ccc(C)cc2)c1S(=O)(=O)Nc1cc(C)c(Cl)cc1OC
#9 O=C(c1ccco1)N1CCN(c2ccc(N3CCCCC3)nn2)CC1
#10 CC1(OC(=O)CCc2ccccc2)C(=O)C=C2C=C(c3ccc(C#N)cc3)N(C(CO)CO)C=C2C1=O (stereo not drawn)
#11 Cc1nn(CC(=O)N2CCN(c3ccccc3)CC2)c(=O)c2cc3cc(F)ccc3n12
#12 Cc1oc(-c2cccc3ccccc23)nc1CN1CCN(c2ncnc3ccccc23)CC1
Screen / compound no.	7	8	9	10	11	12
miR-21 reporter	-27%	-6%	·	3%	-5%	28%
Lamin A splicing	·	-9%[46 µM]	·	13%[9.22 µM]	·	·
JMJD2E inh	·	·	·	3.5µM*	·	-2%
G9a block	-2%	7%[59 µM]	0%[0.501 µM]	-5%[12.7 µM]	-1%[59 µM]	45µM*
Sfp inh	1%	·	·	-14%	·	-28%
ALDH1A1 block	·	·	·	6%[13.5 µM]	·	?

Another view of some results above:
| item | Structure | miR-21 reporter | Lamin A splicing | JMJD2E inh | G9a block | Sfp inh | ALDH1A1 block |
| --- | --- | --- | --- | --- | --- | --- | --- |
| 2 | COc1ccc(N2C=C3C(=O)C(C)(OC(=O)CCc4ccccc4)C(=O)C=C3C=C2c2ccc(C#N)cc2)cc1 (stereo not drawn) | 2% | 5%[9.22 µM] | 20µM*! | -25%[59 µM] | -1% | 3%[13.5 µM] |
| 3 | CC1(OC(=O)CCc2ccccc2)C(=O)C=C2C=C(c3ccc(C#N)cc3)N(CCc3c[nH]c4ccccc34)C=C2C1=O (stereo not drawn) | 5% | 13%[9.22 µM] | 16µM*! | -48%[59 µM] | 14% | 13%[13.5 µM] |
| 4 | CC1(OC(=O)CCc2ccccc2)C(=O)C=C2C=C(c3ccc(C#N)cc3)N(C3CCCCC3)C=C2C1=O (stereo not drawn) | 10% | 0%[9.22 µM] | 28µM*! | -36%[59 µM] | 12% | 4%[13.5 µM] |

(listing goes on)
#13 CCOC(=O)c1sc2nc3c(SCCC(=O)O)cc(C(=O)c4cc(OC)ccc4O)cn3c(=O)c2c1C
#14 CCOC(=O)c1sc2nc3c(SCCC#N)cc(C(=O)c4cc(F)ccc4O)cn3c(=O)c2c1C
#15 O=C(O)CSc1cc(C(=O)c2cc(F)ccc2O)cn2c(=O)c3c(-c4ccccc4)csc3nc12
#16 Cc1ccc(N2CCN(C(=O)C3CCN(S(=O)(=O)c4ccc5c(c4)oc(=O)n5C)CC3)CC2C)cc1 (stereo not drawn)
#17 Cn1cccc1/C=C1/SC(=S)N(CC(=O)O)C1=O
#18 CC(C(=O)O)N1C(=O)/C(=C/c2cccn2C)SC1=S (stereo not drawn)
Screen / compound no.	13	14	15	16	17	18
miR-21 reporter	-17%	-4%	1%	0%	-16%	-4%
Lamin A splicing	?	3%	16%[46 µM]	·	·	?
JMJD2E inh	?	?	5%	·	22µM*	-22%
G9a block	11µM*	?	50µM*	-37%[59 µM]	50µM*	?
Sfp inh	-22%	-1%	-20%	·	-8%	56µM*
ALDH1A1 block	-15%	-12%	7.9µM*	·	28µM*	5%

#19 CCC(C(=O)O)N1C(=O)/C(=C/c2cccn2C)SC1=S (stereo not drawn)
#20 Cc1ccccc1NC(=O)Cn1c(=O)oc2cc(Br)ccc21
#21 FC(F)(F)c1ccccc1-c1cncnc1NCc1cccs1
#22 Fc1ccc(Nc2ncncc2-c2ccccc2C(F)(F)F)cc1
#23 O=C(CCC(=O)N1CCOc2ccccc21)NCc1cccnc1
#24 C=CCNC(=S)NC(=O)c1ccc(C)c(Br)c1
Screen / compound no.	19	20	21	22	23	24
miR-21 reporter	-3%	-6%	·	·	1%	-36%
Lamin A splicing	-14%	-8%[46 µM]	1%	?	·	·
JMJD2E inh	-24%	·	·	·	·	-3%
G9a block	?	-30%[59 µM]	22%[0.501 µM]	-21%[0.501 µM]	·	?
Sfp inh	19%	·	-3%	79µM*	12%	-8%
ALDH1A1 block	-1%	·	?	?	·	16%
